pEC50, pIC50: −log10 of the molar value.
Columns and labels:
[1] = target: hMAO-A (Homo sapiens, UniProt P21397); assay: In vitro hMAO-inhibitory assay (MAO-Glo), hMAO-A; assay type: biochemical; details: mean ± SD of triplicate experiments
Source text: (§1) A homogeneous luminescent assay using the MAO-Glo™ assay kit (Promega, Madison, WI, USA) was used to evaluate the hMAO-inhibitory activity of icariin and its metabolites according to the manufacturer’s protocol.

By UniProt entry, the sequences of proteins in these tests, tags left out. Where a name states a change or a piece, a line headed by the entry shows the natural chain unless it says otherwise.
UniProt P21397, whole entry: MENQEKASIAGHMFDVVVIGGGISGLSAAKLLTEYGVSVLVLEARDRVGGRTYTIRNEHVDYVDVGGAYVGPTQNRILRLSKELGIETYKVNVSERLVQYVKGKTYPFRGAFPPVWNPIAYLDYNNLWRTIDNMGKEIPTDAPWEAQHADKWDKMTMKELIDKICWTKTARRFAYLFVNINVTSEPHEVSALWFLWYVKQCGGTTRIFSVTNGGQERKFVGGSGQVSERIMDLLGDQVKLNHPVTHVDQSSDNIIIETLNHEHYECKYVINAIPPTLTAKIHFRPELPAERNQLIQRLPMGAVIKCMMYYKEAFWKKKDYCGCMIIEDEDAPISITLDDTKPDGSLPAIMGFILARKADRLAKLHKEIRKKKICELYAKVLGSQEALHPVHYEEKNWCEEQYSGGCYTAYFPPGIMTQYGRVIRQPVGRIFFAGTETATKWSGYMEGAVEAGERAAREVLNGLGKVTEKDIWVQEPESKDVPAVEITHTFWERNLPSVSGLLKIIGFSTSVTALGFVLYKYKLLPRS
UniProt P35462, whole entry: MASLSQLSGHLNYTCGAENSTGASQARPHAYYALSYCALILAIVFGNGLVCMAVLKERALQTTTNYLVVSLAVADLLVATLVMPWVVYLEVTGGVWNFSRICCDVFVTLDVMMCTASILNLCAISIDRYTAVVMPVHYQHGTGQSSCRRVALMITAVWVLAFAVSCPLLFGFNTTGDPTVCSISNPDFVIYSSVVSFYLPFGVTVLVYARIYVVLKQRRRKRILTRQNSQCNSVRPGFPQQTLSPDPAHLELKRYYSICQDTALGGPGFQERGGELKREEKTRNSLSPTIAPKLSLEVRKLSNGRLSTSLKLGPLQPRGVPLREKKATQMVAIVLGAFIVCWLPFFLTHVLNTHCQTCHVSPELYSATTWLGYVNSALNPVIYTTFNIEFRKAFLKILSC
UniProt P27338, whole entry: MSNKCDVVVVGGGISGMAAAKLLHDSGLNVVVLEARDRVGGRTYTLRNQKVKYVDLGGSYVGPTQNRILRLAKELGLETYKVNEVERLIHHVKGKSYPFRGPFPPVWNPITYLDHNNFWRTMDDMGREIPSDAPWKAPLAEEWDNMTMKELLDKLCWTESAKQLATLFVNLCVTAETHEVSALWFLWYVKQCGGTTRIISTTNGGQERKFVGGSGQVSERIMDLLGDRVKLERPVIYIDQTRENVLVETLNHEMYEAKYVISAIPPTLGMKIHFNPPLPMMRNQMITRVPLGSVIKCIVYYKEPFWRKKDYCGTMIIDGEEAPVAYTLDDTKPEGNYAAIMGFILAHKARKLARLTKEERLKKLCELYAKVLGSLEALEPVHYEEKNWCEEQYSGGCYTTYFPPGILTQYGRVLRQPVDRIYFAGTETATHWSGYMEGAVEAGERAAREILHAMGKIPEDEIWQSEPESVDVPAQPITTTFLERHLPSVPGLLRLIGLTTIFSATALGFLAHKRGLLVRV

[2] = target: T1, Human D3R (Homo sapiens, UniProt P35462); details: [3H]methyl-spiperone competition; read-out: IC50, radioligand binding assay (D3R)
T1 construct: expressed in transfected cells; host or cells: CHO-K1 (membrane homogenates)
Procedure: Next, 10 μM (f.c.) (+)-butaclamol (for D3R) and 1 μM (f.c.) atropine (for M2R) were used to detect nonspecific binding in the respective assays. The binding affinity of a test compound was calculated as the inhibition (%) of control (radioligand)-specific binding.

[3] = target: dopamine D3 receptor (D3R) (Homo sapiens, UniProt P35462); assay: FRET-based cAMP agonist effect assay (D3R); details: read-out: EC50, agonist effect assay (D3R), CHO-K1 hD3R
[4] = target: hMAO-B (Homo sapiens, UniProt P27338); assay: In vitro hMAO-inhibitory assay (MAO-Glo), hMAO-B; assay type: biochemical; details: mean ± SD of triplicate experiments
Source text: as §1

[5] = cited from earlier work

Question: With icariside II as the substance, how does the IC50 [1] read?
Answer: Its IC50 is greater than 500 µM.

Question: What about the pIC50 [2] of the same substance?
Answer: Its pIC50 is 4.71.

Question: What about the pEC50 [3] of the same substance?
Answer: Its pEC50 is 4.88.

Question: What about the IC50 [4] of the same substance?
Answer: Its IC50 is greater than 500 µM.

Question: What about the blood-brain barrier penetration [5] of the same substance?
Answer: The blood-brain barrier penetration was “could penetrate the blood-brain barrier (BBB) readily”.

Reference: publication PMC10647531, “Effects of Icariin and Its Metabolites on GPCR Regulation and MK-801-Induced Schizophrenia-Like Behaviors in Mice” (Molecules, 2023)
